Reference: publication PMC5979958, “Identification of an Arg-Leu-Arg tripeptide that contributes to the binding interface between the cytokine MIF and the chemokine receptor CXCR4” (Scientific Reports, 2018)
“Also recorded” adds a separate entry of the source.

Test system: MIF/CXCR4-dependent JVM-3 lymphocyte chemotaxis
Experiment: inhibition of MIF-mediated JVM-3 B cell chemotaxis by RLR-containing peptides
Format: cell-based, human
Details: 10 nM, 100 nM or 1 µM peptide; 16 nM WT-MIF; concentration dependence and relative potency of the two peptides
Procedure: Together, the peptide competition experiment corroborated the notion that the RLR region directly contributes to functional MIF/CXCR4 interactions.
Migration assays using the CXCR4-expressing JVM-3 B cell line were performed in a transmigration well as previously described[32] using the following modifications. Briefly, JVM-3 B cells were sub-cultured and transferred to media without FBS. A migration assay was performed using 24-well format Transwell membranes (Sigma-Corning; 5 µm pore size) containing 1 × 10^6 JVM-3 cells in the upper chamber. […] As positive control, 8 nM CXCL12 was used. Wells without chemoattractant served as negative control and were used to normalize migration effects to ‘chemotactic index’ (number of migrated cells in the presence of chemoattractant divided by the number of migrated cells in the absence of the chemoattractant) – as described previously. In the inhibition assay, 10 nM, 100 nM, or 1 µM of the RLR-containing MIF peptides 76–90 ([…]) or 86–100 ([…]) were pre-incubated with WT-MIF for 30 min prior to the migration process and also added to the upper chamber. Cells were allowed to migrate for 24 h. After migration, cells in the lower chamber were counted using Countbright absolute counting beads (Invitrogen) using a FACSVerse flow cytometer (BD Biosciences, Heidelberg, Germany).

Row | Sequence | competition with WT-MIF in JVM-3 chemotaxis, overall
1 | ERLRISPDRVYINYY [MIF(86–100), RLR-spanning MIF peptide] | concentration-dependent competition behavior; also recorded: block
2 | YSKLLCGLLAERLRI [MIF(76–90), RLR-spanning MIF peptide] | even more potent; also recorded: block
